According to PubChem BioAssay (NCATS):
This is a selection; strong and weak results do not stand in their true shares. Results filed as inconclusive are left out. The source made the active and inactive calls. Calls come from the whole dose curve; as a rule, active = well fitted curve in the direction sought with a large enough effect; inconclusive = small, poorly fitted or top-dose-only effect, or another doubt; inactive = no such curve, though single readings can be large; an effect the other way counts as inactive or inconclusive.

By UniProt entry, the sequences of proteins in these tests, tags left out.
UniProt P24462, whole entry: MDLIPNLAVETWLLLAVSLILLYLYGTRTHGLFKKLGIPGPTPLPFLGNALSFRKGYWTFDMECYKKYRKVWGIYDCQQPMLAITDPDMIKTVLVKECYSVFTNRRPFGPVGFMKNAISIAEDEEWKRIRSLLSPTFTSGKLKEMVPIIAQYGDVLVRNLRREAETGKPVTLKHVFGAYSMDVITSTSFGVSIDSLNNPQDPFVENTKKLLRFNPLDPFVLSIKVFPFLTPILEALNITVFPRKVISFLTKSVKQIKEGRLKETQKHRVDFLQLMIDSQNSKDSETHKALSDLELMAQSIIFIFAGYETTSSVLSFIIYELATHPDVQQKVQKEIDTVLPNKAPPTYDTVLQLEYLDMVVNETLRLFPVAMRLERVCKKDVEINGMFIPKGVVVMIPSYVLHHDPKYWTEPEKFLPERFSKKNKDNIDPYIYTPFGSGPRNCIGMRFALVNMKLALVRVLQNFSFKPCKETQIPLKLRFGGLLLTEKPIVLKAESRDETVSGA

Legend:
[1] = biological target: Cytochrome P450 3A7 (Homo sapiens) (UniProt P24462); test: Cytochrome P450 family 3 subfamily A member 7 (CYP3A7) small molecule antagonists: luciferase qHTS assay (AID 1963596; note: nearly all actives have a fitted effect of over 40% in size; note: potency is the fitted concentration of half-maximal effect)
Description: National Center for Advancing Translational Sciences [NCATS] Assay Overview: Cytochrome P450 (CYP) enzymes are membrane-bound hemeproteins that play a key role in metabolism of drugs and xenobiotics. The CYP3A subfamily is the most abundant, representing 30% of the total adult hepatic CYP content, whereas CYP3A7 is found predominantly in human fetal liver and accounts up to 50% of the total fetal hepatic CYP content. Testing the effect of chemicals on CYP isozymes is useful to minimize the adverse drug reactions and toxicities in the drug development process. Chemicals were tested for their effect on CYP enzyme activities by using P450-Glo (TM) screening systems (Promega Corporation, Madison, WI). […] The luciferin products formed are detected with a luciferin detection reagent, and the amount of light produced is proportional to CYP activity. […]
Assay Protocol Summary: Two ul of enzyme-substrate mix was dispensed into medium binding white/solid 1536-well plates (Greiner Bio-One North America Inc., Monroe, NC) using a Flying Reagent Dispenser (FRD, Aurora Discovery, San Diego, CA). […] The reaction was stopped by adding 4 ul of detection reagent using an FRD and after 20 min incubation at room temperature the luminescence signal was measured using a ViewLux plate reader (Perkin Elmer, Shelton, CT). Data were expressed as relative luminescence units.

[2] = Viability qHTS for spleen associated tyrosine kinase inhibitor (SYKi) drug resistant MV4-11 cells (AID 1963824); conditions: SYKi-resistant MV4-11 viability, CellTiter-Glo, 72 h; at 45 µM (top of the series); note: nearly all actives have a fitted effect of over 35% in size
Description: Department of Medicine, Hematology/Oncology
University Hospital Frankfurt, Germany.
Trials have shown promising clinical activity of the selective SYK inhibitor entospletinib in patients with high expressing HOXA9/MEIS1 acute leukemias. As the development of resistance mechanisms is a common problem in the use of targeted drugs, we performed a chemical library screen to identify drug sensitivities in SYK inhibitor resistant AML cells. […] Glucocorticoids are potent immunosuppressants which work in part by inhibiting the transcription of cytokine genes.
Described herein is a viability screen to look for activity in the SYK inhibitor drug resistant cell line against four NCATS compound libraries (MIPE 5.0, NPC, NPACT, and Kinase) totaling 11372 compounds. Active hits were reacquired for confirmation and further secondary assay testing.
SEQUENCE No. (e.g., 1, 2, 3, etc.); […] (e.g., Cells, Incubation, Reagent, etc.); VALUE; DESCRIPTION.
1; Media; 2uL; white, solid-bottom Corning assay plate.
2; Compounds; 23nL; Echo acoustic dispenser.
3; Cell; 5uL; 500 cells per well.
4: Incubation; 72hr; 37 C, 5% CO2, 95% humidity.
5; Reagent; 3uL; CellTiter-Glo reagent (Promega).
6; Incubation; 10min; room temperature.
7; Detection; Luminescence; ViewLux plate reader (PerkinElmer).
NOTES (numbers refer to Sequence numbers above
1. Quantitative high-throughput screening (qHTS) of small molecule compounds was conducted on drug resistant SYKi MV4-11 cell line.
2. Twenty-three nanoliter of small molecule compounds were added to each assay plates using the Echo acoustic dispenser (Beckman Coulter).
3. Cells were seeded into the assay plates at a final density of 500 cells in 5uL of media per well using the Multidrop Combi dispenser.
4. Plates were covered with stainless steel gasketed lids and incubated for 72 hours at standard cell culture conditions.
5. Viability was assessed by adding 3uL of CellTiter-Glo detection reagent (Promega).
6. Plates were covered with gasket lids and incubated for 10 minutes at room temperature.
7. Luminescence was measured on a ViewLux plate reader (PerkinElmer).

[3] = Viability qHTS for spleen associated tyrosine kinase inhibitor (SYKi) naive MV4-11 cells (AID 1963823); conditions: MV4-11 AML viability, CellTiter-Glo luminescence, 72 h; at 45 µM (top of the series); note: nearly all actives have a fitted effect of over 40% in size
How it was run: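 Luminescence from CellTiter-Glo, developed 10 min at room temperature, gave viability of MV4-11 cells never exposed to SYK inhibitor. Cells (500/well) had been incubated with compounds for 72 hr under standard culture conditions.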

[4] = Quantitative highthroughput screen to assess conditional lethalithy of P12 Ichikawa cells grown in Human Plasma-Like Medium with dialyzed fetal bovine serum (HPLM+ds) (AID 1963879); conditions: ATP luminescence, 48 h; at 45.8 µM (top of the series); note: nearly all actives have a fitted effect of over 35% in size
Description: (§1) Assay Provider: Jason Cantor Ph.D.
(§2) Department of Biochemistry
(§3) University of Wisconsin-Madison, Madison, WI, USA
(§4) Chemical screening studies have identified drug sensitivities across hundreds of cancer cell lines but most putative therapeutics fail to translate. Discovery and development of drug candidates in models that more accurately reflect nutrient levels in human blood is a major challenge. Here we performed high-throughput screens in conventional versus Human Plasma-Like Medium (HPLM) to identify compounds that were "missed" when screening using the artificial culture condition. Sets of conditional anticancer compounds spanned phases of clinical development and included non-oncology drugs were assessed. […] We also traced conditional phenotypes for several chemotherapeutics to availability of HPLM-specific metabolites and confirmed others for compounds whose reported targets are encoded by nonessential genes. Our findings establish generalizable strategies for exploiting conditional lethality in HPLM to reveal therapeutic candidates and mechanisms of action in cancer cells. […]
(§5) 6; Detection; Luminescence, Viewlux PerkinElmer. […]
(§6) 6. The luminescence signal was measured using a ViewLux (PerkinElmer) multiplate reader with a 2 second exposure time per plate. […]

[5] = Quantitative highthroughput screen to assess conditional lethalithy of P12 Ichikawa cells grown in RPMI1640 with dialyzed fetal bovine serum (RPMI+ds) (AID 1963880); conditions: ATP luminescence, 48 h; at 45.8 µM (top of the series);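 note: 100% = DMSO wells and 0% = empty wells on each plate; nearly all actives have a fitted effect of over 35% in size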
Description: as §1, §2, §3, §4, §5, §6

[6] = Quantitative highthroughput screen to assess conditional lethalithy of P12 Ichikawa cells grown in RPMI1640 with untreated serum (RPMI+s) (AID 1963881); conditions: ATP luminescence, 48 h; at 45.8 µM (top of the series);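 note: 100% = DMSO wells and 0% = empty wells without cells; nearly all actives have a fitted effect of over 35% in size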
Description: as §1, §2, §3, §4, §5, §6

[7] = Quantitative highthroughput screen to assess conditional lethalithy of SEM cells grown in RPMI1640 with unreated serum (RPMI+s) (AID 1963883); conditions: SEM B-ALL cells, CellTiter-Glo viability, 48 h; at 45.8 µM (top of the series)
Description: as §1, §2, §3, §4, §5, §6

[8] = Quantitative highthroughput screen to assess conditional lethalithy of SEM cells grown in RPMI1640 with dialyzed fetal bovine serum (RPMI+ds) (AID 1963884); conditions: SEM B-ALL cells, RPMI+dialyzed FBS, CellTiter-Glo viability, 48 h; at 45.8 µM (top of the series)
Description: as §1, §2, §3, §4, §5, §6

[9] = Cellular viability qHTS for adrenocortical cancer (ACC) cell line SW-13 (AID 1963989); conditions: SW-13 ACC cells viability, CellTiter-Glo, 48 h; stronger effect = lower value;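 note: cells grown in serum-free medium with ITS supplement; % is set by controls: 0 for no effect and ±100 for the full control effect; nearly all actives have a fitted effect of over 65% in size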
How it was run: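 Viability was read as CellTiter-Glo luminescence after 48 h compound treatment (up to 46 uM final) of SW-13 cells grown serum-free; titration curves were fit with a four-parameter logistic model to give IC50 and efficacy.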

[10] = Cellular viability qHTS for adrenocortical cancer (ACC) cell line NCI-H295R (AID 1963990); conditions: CellTiter-Glo ATP luminescence, 48 h; at 46.1 µM (top of the series);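 note: 0% = DMSO only wells and -100% = full killing with cytotoxic reference compound; nearly all actives have a fitted effect of over 60% in size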
How it was run: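 CellTiter-Glo ATP luminescence, read 48 h after compound addition, measured viability of NCI-H295R adrenocortical cells grown serum-free with ITS. Final concentrations spanned up to 46 uM. Data normalized to DMSO and doxorubicin, fitted for IC50 and maximal response.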

CC(=O)N1CCc2ccc(N(C(=O)/C=C/c3cccc(C#N)c3)C3CCN(CCC4CCCC4)CC3)cc21
active: Potency [1] 12.6 µM
inactive: viability, % of control [2] 93%

CCOC(=O)C(=O)CBr
inactive: viability (% of control) [3] 91.8% | viability, % of control [2] 87.7% | viability [4] 98% | viability [5] 90% | viability [6] 87.9% | viability [7] 87% | viability [8] 79.1% | activity (max response) [9] -1.13% | activity change, negative = viability loss [10] -4.45%

CCOC(=O)N1CCC(=O)CC1
inactive: Potency [1] | viability (% of control) [3] 98.9% | viability, % of control [2] 89.5% | activity (max response) [9] 7.83% | activity change, negative = viability loss [10] -13.6%

CCC(=O)N(c1ccccc1)C1CCNCC1
inactive: viability (% of control) [3] 97.8% | activity (max response) [9] -3.96% | activity change, negative = viability loss [10] -8.24%
